Legend:
PDE1C = PDE1C (Homo sapiens (Human), UniProt Q14123); assay: PDE1 inhibition assay (PDE1C), SPA with tritium labelled cAMP; format: biochemical; settings: 15 nM tritium labelled cAMP, 1 hr at room temperature
Source text: (§1) Table 1 lists the IC50 value for inhibition of PDE1 by the compounds of the invention. […] PDE1 assays are described in the Experimental Section.

Protein sequences, listed by entry. Tags and fused reporters are not part of them. Lines headed by an entry give the natural chain unless they say otherwise; changes in a name come on top.
UniProt Q14123, whole entry: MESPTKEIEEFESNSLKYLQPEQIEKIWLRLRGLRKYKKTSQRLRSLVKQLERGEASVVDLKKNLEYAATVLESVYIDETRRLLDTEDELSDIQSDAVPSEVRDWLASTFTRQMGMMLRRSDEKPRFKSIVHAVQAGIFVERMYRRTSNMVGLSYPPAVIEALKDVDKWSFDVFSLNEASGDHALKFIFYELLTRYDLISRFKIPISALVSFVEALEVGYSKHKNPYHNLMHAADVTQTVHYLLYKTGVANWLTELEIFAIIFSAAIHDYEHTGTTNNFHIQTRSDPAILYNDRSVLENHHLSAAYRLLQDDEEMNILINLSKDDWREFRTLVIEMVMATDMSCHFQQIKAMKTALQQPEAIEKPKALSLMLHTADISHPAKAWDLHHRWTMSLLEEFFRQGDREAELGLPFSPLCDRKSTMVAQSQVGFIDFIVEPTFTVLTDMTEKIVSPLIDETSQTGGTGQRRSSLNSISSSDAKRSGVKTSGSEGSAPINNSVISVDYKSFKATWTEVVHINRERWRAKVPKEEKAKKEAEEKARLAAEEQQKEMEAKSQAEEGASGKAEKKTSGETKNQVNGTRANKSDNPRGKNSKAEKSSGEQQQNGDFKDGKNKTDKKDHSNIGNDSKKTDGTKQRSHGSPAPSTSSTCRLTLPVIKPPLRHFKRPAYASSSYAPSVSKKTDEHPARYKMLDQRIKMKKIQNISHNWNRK
UniProt Q01064: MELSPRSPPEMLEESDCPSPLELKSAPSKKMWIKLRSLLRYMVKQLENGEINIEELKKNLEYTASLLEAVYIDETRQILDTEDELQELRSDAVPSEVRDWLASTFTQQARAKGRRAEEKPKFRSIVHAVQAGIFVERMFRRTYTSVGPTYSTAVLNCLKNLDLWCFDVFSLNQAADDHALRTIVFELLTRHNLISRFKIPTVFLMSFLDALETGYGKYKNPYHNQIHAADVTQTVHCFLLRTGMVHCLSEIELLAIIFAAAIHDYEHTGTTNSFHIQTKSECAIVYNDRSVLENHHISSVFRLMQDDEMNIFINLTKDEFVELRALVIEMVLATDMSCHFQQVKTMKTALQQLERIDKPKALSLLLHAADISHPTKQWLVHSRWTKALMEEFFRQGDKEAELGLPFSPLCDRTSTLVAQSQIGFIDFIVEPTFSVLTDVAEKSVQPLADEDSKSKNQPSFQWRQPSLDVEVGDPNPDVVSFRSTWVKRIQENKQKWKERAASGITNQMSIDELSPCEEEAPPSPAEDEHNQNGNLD

PDE1B = PDE1B (Homo sapiens (Human), UniProt Q01064); assay: PDE1 inhibition assay (PDE1B), SPA with tritium labelled cAMP; format: biochemical; settings: 15 nM tritium labelled cAMP, 1 hr at room temperature
Source text: as §1

For `CCOc1ncccc1-c1cc(NCc2ccncc2OC)c2c(n1)c(C)nn2C(C)C` [Example 172, 5-(2-ethoxy-3-pyridyl)-1-isopropyl-N-[(3-methoxy-4-pyridyl)methyl]-3-methyl-pyrazolo[4,3-b]pyridin-7-amine], the IC50 (PDE1C) was 0.046 µM.

Work on `CCOc1ncccc1-c1cc(NCc2cnn(C)c2)c2c(cnn2CC)n1` [Example 26, 5-(2-ethoxy-3-pyridyl)-1-ethyl-N-[(1-methylpyrazol-4-yl)methyl]pyrazolo[4,3-b]pyridin-7-amine] yielded an IC50 (PDE1B) of 0.022 µM and an IC50 (PDE1C) of 0.44 µM.
